Legend:
[1] = tested on: mice; settings: LD50 mice oral / dose giving 100% inhibition of catatonia;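 note: LD50 part of every column derived from compounds dosed in aqueous solution, deaths followed over a 10-day observation period after dosing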
[2] = tested on: neuroleptic-induced catatonia (prochlorperazine); assay: Suppression of neuroleptic-induced catatonia (curative treatment); type: in vivo, rat (male, OFA strain); settings: versus amantadine 80 mg/kg
Procedure: Fifty-five minutes later, an oral dose in aqueous solution of the compound to be studied was administered to all the animals with the exception of the control group. The progress of the catatonia was noted following the same scale as that used in the tests described above.

[3] = tested on: reserpine-induced catatonia; assay: Suppression of reserpine-induced catatonia (curative treatment); type: in vivo, rat (male, OFA strain); settings: versus amantadine 80 mg/kg
Procedure: Batches of 5 male rats of the OFA strain, weighing 150 to 200 g were given 5 mg/kg of reserpine by intraperitoneal route. One hour and 45 minutes later, namely when the animals were in state of catatonia, an aqueous dose of the compound to be studied was administered by oral route to all the animals with the exception of the control group.
The progress of the catatonia was then noted following the scale used in the tests described hereabove.
The maximum score was thus 5 per batch which means that all the animals of the batch were considered to be still in a state of catatonia.

Structure (SMILES) | Index LD50/ED100 [1] | activity relative to amantadine, curative treatment, neuroleptic-induced catatonia [2] | activity relative to amantadine, curative treatment, reserpine-induced catatonia [3]
CCCC(N)(CCC)CCC | ≈ 33 | – | –
CCCC(N)(CCC)CCC [Compound 1] | 20 | at least 16 times | at least 32 times

— patent publication US4057644A, “Active derivatives of methylamine in therapeutic compositions and methods of use” (priority 1976, dated 1977)
